Measurements: ChEMBL document CHEMBL3817735 (J Med Chem, 2016)

Tests used:
Sialidase-4 [1] = target: T1, Sialidase-4 (Homo sapiens, UniProt Q8WWR8); test: Inhibition of human Neu4 expressed in HEK293T cells using GM3 as substrate incubated for 30 mins by HPLC analysis; type: cell-based, HEK-293T
T1 sequence (Q8WWR8 whole entry): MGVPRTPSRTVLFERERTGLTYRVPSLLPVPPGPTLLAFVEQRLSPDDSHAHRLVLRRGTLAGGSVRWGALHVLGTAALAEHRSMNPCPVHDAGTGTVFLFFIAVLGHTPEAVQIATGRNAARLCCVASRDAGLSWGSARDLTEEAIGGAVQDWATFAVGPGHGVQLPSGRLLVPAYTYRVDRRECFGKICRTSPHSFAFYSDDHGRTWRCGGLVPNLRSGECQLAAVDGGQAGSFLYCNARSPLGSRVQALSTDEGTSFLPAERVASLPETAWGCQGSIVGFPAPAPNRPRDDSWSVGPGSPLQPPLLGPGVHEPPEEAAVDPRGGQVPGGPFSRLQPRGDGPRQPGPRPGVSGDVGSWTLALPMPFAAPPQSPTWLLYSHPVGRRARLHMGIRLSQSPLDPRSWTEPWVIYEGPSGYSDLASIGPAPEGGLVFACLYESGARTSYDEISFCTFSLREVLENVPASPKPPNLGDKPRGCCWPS

Sialidase-4 [2] = target: T1, Sialidase-4; test: Inhibition of human Neu4 expressed in HEK293T cells using 4MU-Neu5Ac as substrate incubated for 30 mins by HPLC analysis; type: cell-based, HEK-293T

Compound | IC50 (Sialidase-4 [1]) [µM] | IC50 (Sialidase-4 [2]) [µM]
CC(=O)N[C@H]1[C@H]([C@H](O)[C@H](O)CO)OC(C(=O)O)=C[C@@H]1O [NEU5AC2EN] | 50 | 50
CC(=O)N[C@H]1[C@H]([C@H](O)[C@H](O)CO)OC(C(=O)O)=C[C@@H]1N=C(N)N [ZANAMIVIR] | 1040 | 392
